For 29 compounds, Ki results are on record in PMC9933483, “Tail-Approach-Based Design and Synthesis of Coumarin-Monoterpenes as Carbonic Anhydrase Inhibitors and Anticancer Agents” (ACS Omega, 2023).

Amino acid sequences for entries named in this document (tags omitted). Residues count along the entry.
UniProt O43570, 25-354: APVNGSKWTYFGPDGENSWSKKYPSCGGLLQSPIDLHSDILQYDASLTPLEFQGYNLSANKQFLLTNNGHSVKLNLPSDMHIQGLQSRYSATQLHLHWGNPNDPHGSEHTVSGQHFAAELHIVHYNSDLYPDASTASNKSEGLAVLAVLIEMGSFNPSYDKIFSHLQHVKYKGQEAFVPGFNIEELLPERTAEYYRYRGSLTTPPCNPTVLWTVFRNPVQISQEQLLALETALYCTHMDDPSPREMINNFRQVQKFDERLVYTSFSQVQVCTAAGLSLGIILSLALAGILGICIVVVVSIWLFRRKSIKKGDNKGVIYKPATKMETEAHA

The term Ki denotes the dissociation constant of the complex between target and ligand, obtained from inhibition or displacement. A lower Ki goes with higher affinity.

This assay deals with hCA XII (Homo sapiens, UniProt O43570). Nature of the assay: CA inhibition, stopped-flow technique. The class given is biochemical. The note with it: mean from 3 assays, errors ±5–10%.

Regarding `Cc1ccc(C(C)C)c(OCc2cn(CCCCCCCCCOc3ccc4ccc(=O)oc4c3)nn2)c1` [Compound 17, 7-((9-(4-((2-Isopropyl-5-methylphenoxy)methyl)-1H-1,2,3-triazol-1-yl)nonyl)oxy)-2H-chromen-2-one], the inhibition constant (Ki) was found to be 29.5 nM.

Turning to `Cc1ccc(C(C)C)c(OCc2cn(CCCCCCCCCCOc3ccc4ccc(=O)oc4c3)nn2)c1` [Compound 18, 7-((10-(4-((2-Isopropyl-5-methylphenoxy)methyl)-1H-1,2,3-triazol-1-yl)decyl)oxy)-2H-chromen-2-one], the affinity corresponds to a Ki of 27.4 nM.

`Cc1ccc(C(C)C)c(OCc2cn(CCCCCCCCCCCCOc3ccc4ccc(=O)oc4c3)nn2)c1` [Compound 19, 7-((12-(4-((2-Isopropyl-5-methylphenoxy)methyl)-1H-1,2,3-triazol-1-yl)dodecyl)oxy)-2H-chromen-2-one] came in with a Ki of 82.3 nM.

`Cc1ccc(C(C)C)cc1OCc1cn(CCCCCCOc2ccc3ccc(=O)oc3c2)nn1` [Compound 23, 7-((6-(4-((5-Isopropyl-2-methylphenoxy)methyl)-1H-1,2,3-triazol-1-yl)hexyl)oxy)-2H-chromen-2-one] returned an inhibition constant (Ki) of 295 nM.

`Cc1ccc(C(C)C)cc1OCc1cn(CCCCCCCOc2ccc3ccc(=O)oc3c2)nn1` [Compound 24, 7-((7-(4-((5-Isopropyl-2-methylphenoxy)methyl)-1H-1,2,3-triazol-1-yl)heptyl)oxy)-2H-chromen-2-one] gave an inhibition constant Ki of 73.1 nM.

Regarding `Cc1ccc(C(C)C)cc1OCc1cn(CCCCCCCCCOc2ccc3ccc(=O)oc3c2)nn1` [Compound 25, 7-((9-(4-((5-Isopropyl-2-methylphenoxy)methyl)-1H-1,2,3-triazol-1-yl)nonyl)oxy)-2H-chromen-2-one], the inhibition constant Ki is 43.3 nM.

For the compound `Cc1ccc(C(C)C)cc1OCc1cn(CCCCCCCCCCOc2ccc3ccc(=O)oc3c2)nn1` [Compound 26, 7-((10-(4-((5-Isopropyl-2-methylphenoxy)methyl)-1H-1,2,3-triazol-1-yl)decyl)oxy)-2H-chromen-2-one], the Ki was found to be 40.4 nM.

As to `Cc1ccc(C(C)C)cc1OCc1cn(CCCCCCCCCCCCOc2ccc3ccc(=O)oc3c2)nn1` [Compound 27, 7-((12-(4-((5-Isopropyl-2-methylphenoxy)methyl)-1H-1,2,3-triazol-1-yl)dodecyl)oxy)-2H-chromen-2-one], the inhibition constant Ki is 40.4 nM.

Consider `C=CCc1ccc(OCc2cn(CCOc3ccc4ccc(=O)oc4c3)nn2)c(OC)c1` [Compound 28, 7-(2-(4-((4-Allyl-2-methoxyphenoxy)methyl)-1H-1,2,3-triazol-1-yl)ethoxy)-2H-chromen-2-one], for which the Ki was 73.2 nM. Compared with the last compound, the Ki is about 1.8-fold higher.

`C=CCc1ccc(OCc2cn(CCCCCCCCCOc3ccc4ccc(=O)oc4c3)nn2)c(OC)c1` [Compound 33, 7-((9-(4-((4-Allyl-2-methoxyphenoxy)methyl)-1H-1,2,3-triazol-1-yl)nonyl)oxy)-2H-chromen-2-one] had a Ki of 294 nM.

The compound `C=CCc1ccc(OCc2cn(CCCCCCCCCCOc3ccc4ccc(=O)oc4c3)nn2)c(OC)c1` [Compound 34, 7-((10-(4-((4-Allyl-2-methoxyphenoxy)methyl)-1H-1,2,3-triazol-1-yl)decyl)oxy)-2H-chromen-2-one] gave a Ki of 204 nM.

With `C=CCc1ccc(OCc2cn(CCCCCCCCCCCCOc3ccc4ccc(=O)oc4c3)nn2)c(OC)c1` [Compound 35, 7-((12-(4-((4-Allyl-2-methoxyphenoxy)methyl)-1H-1,2,3-triazol-1-yl)dodecyl)oxy)-2H-chromen-2-one], the Ki was found to be 284 nM. The Ki values of the last two compounds are within 1.5-fold of each other.

On to `CC1CCC(C(C)C)C(OCc2cn(CCCOc3ccc4ccc(=O)oc4c3)nn2)C1` (centres unmarked) [Compound 37, 7-(3-(4-(((2-Isopropyl-5-methylcyclohexyl)oxy)methyl)-1H-1,2,3-triazol-1-yl)propoxy)-2H-chromen-2-one], for which the affinity corresponds to a Ki of 411 nM.

For `CC1CCC(C(C)C)C(OCc2cn(CCCCOc3ccc4ccc(=O)oc4c3)nn2)C1` (centres unmarked) [Compound 38, 7-(4-(4-(((2-Isopropyl-5-methylcyclohexyl)oxy)methyl)-1H-1,2,3-triazol-1-yl)butoxy)-2H-chromen-2-one], the Ki was 28.8 nM.

`CC1CCC(C(C)C)C(OCc2cn(CCCCCCCCCOc3ccc4ccc(=O)oc4c3)nn2)C1` (centres unmarked) [Compound 41, 7-((9-(4-(((2-Isopropyl-5-methylcyclohexyl)oxy)methyl)-1H-1,2,3-triazol-1-yl)nonyl)oxy)-2H-chromen-2-one] returned a Ki of 22.3 nM.

The compound `CC1CCC(C(C)C)C(OCc2cn(CCCCCCCCCCOc3ccc4ccc(=O)oc4c3)nn2)C1` (centres unmarked) [Compound 42, 7-((10-(4-(((2-Isopropyl-5-methylcyclohexyl)oxy)methyl)-1H-1,2,3-triazol-1-yl)decyl)oxy)-2H-chromen-2-one] showed an inhibition constant (Ki) of 22.6 nM.

The compound `CC1CCC(C(C)C)C(OCc2cn(CCCCCCCCCCCCOc3ccc4ccc(=O)oc4c3)nn2)C1` (centres unmarked) [Compound 43, 7-((12-(4-(((2-Isopropyl-5-methylcyclohexyl)oxy)methyl)-1H-1,2,3-triazol-1-yl)dodecyl)oxy)-2H-chromen-2-one] displayed a Ki of 42.2 nM.

`Cc1ccc(C(C)C)c(OCCCOc2ccc3ccc(=O)oc3c2)c1` [Compound 45, 7-(3-(2-Isopropyl-5-methylphenoxy)propoxy)-2H-chromen-2-one]: the affinity corresponds to a Ki of 8.1 nM.

Turning to `Cc1ccc(C(C)C)c(OCCCCOc2ccc3ccc(=O)oc3c2)c1` [Compound 46, 7-(4-(2-Isopropyl-5-methylphenoxy)butoxy)-2H-chromen-2-one], the Ki was determined as 8.5 nM.

As for `Cc1ccc(C(C)C)c(OCCCCCCOc2ccc3ccc(=O)oc3c2)c1` [Compound 47, 7-((6-(2-Isopropyl-5-methylphenoxy)hexyl)oxy)-2H-chromen-2-one], the Ki was determined as 7.7 nM.

With `Cc1ccc(C(C)C)c(OCCCCCCCOc2ccc3ccc(=O)oc3c2)c1` [Compound 48, 7-((7-(2-Isopropyl-5-methylphenoxy)heptyl)oxy)-2H-chromen-2-one], the affinity corresponds to a Ki of 9.4 nM.

`Cc1ccc(C(C)C)c(OCCCCCCCCCOc2ccc3ccc(=O)oc3c2)c1` [Compound 49, 7-((9-(2-Isopropyl-5-methylphenoxy)nonyl)oxy)-2H-chromen-2-one] displayed a Ki of 7.6 nM.

`Cc1ccc(C(C)C)c(OCCCCCCCCCCCCOc2ccc3ccc(=O)oc3c2)c1` [Compound 51, 7-((12-(2-Isopropyl-5-methylphenoxy)dodecyl)oxy)-2H-chromen-2-one] had an inhibition constant Ki of 8.5 nM.

Turning to `Cc1ccc(C(C)C)cc1OCCCOc1ccc2ccc(=O)oc2c1` [Compound 53, 7-(3-(5-Isopropyl-2-methylphenoxy)propoxy)-2H-chromen-2-one], the affinity, expressed as Ki, was 8.1 nM.

In turn, `Cc1ccc(C(C)C)cc1OCCCCCCOc1ccc2ccc(=O)oc2c1` [Compound 55, 7-((6-(5-Isopropyl-2-methylphenoxy)hexyl)oxy)-2H-chromen-2-one] yielded a Ki of 7.7 nM.

For `C=CCc1ccc(OCCOc2ccc3ccc(=O)oc3c2)c(OC)c1` [Compound 60, 7-(2-(4-Allyl-2-methoxyphenoxy)ethoxy)-2H-chromen-2-one], the affinity, expressed as Ki, was 8.3 nM.

On to `C=CCc1ccc(OCCCCOc2ccc3ccc(=O)oc3c2)c(OC)c1` [Compound 62, 7-(4-(4-Allyl-2-methoxyphenoxy)butoxy)-2H-chromen-2-one], for which the Ki came to 6.7 nM.

`C=CCc1ccc(OCCCCCCCCCCOc2ccc3ccc(=O)oc3c2)c(OC)c1` [Compound 66, 7-((10-(4-Allyl-2-methoxyphenoxy)decyl)oxy)-2H-chromen-2-one] came in with a Ki of 56.8 nM.

For `CC1CCC(C(C)C)C(OCCCOc2ccc3ccc(=O)oc3c2)C1` (centres unmarked) [Compound 69, 7-(3-((2-Isopropyl-5-methylcyclohexyl)oxy)propoxy)-2H-chromen-2-one], the affinity, expressed as Ki, was 9.1 nM.
